ChEMBL document CHEMBL1124775 (J Med Chem, 1990)

Experiments:
[1] = system: Rattus norvegicus; test: In vivo binding specificity the compound in rat striatum at 30 min of intravenous injection.
[2] = system: Rattus norvegicus; test: In vivo binding specificity the compound in rat striatum at 60 min of intravenous injection.
[3] = system: Rattus norvegicus; test: In vivo binding specificity the compound in rat cerebellum at 30 min of intravenous injection.
[4] = system: Rattus norvegicus; test: In vivo binding specificity the compound in rat cerebellum at 60 min of intravenous injection.
[5] = Specificity of binding in vivo was measured as the ratio of activity localized in the striatum (percent injected dose/gram) to that localized in the cerebellum (percent injected dose/gram) at 30 min
[6] = Specificity of binding in vivo was measured as the ratio of activity localized in the striatum (percent injected dose/gram) to that localized in the cerebellum (percent injected dose/gram) at 60 min
[7] = species on record: Rattus norvegicus; test: Binding of [3H]diprenorphine to rat brain membranes was evaluated and the dissociation constant (KD) was determined.; set-up: species or system Membrane

Structure (SMILES)	ID (per g of tissue) [1] [%]	ID (per g of tissue) [2] [%]	ID (per g of tissue) [3] [%]	ID (per g of tissue) [4] [%]	Ratio [5]	Ratio [6]	Kd [7] [nM]
CO[C@]12CC[C@@]3(C[C@@H]1C(C)(C)O)[C@H]1Cc4ccc(O)c5c4[C@@]3(CCN1CC[18F])[C@H]2O5	0.103	0.041	0.087	0.037	1.21	1.06	–
CO[C@]12CC[C@@]3(C[C@@H]1C(C)(C)O)[C@H]1Cc4ccc(O)c5c4[C@@]3(CCN1C[C@H](C)C[18F])[C@H]2O5.Cl	0.198	0.068	0.176	0.062	1.15	1.13	–
CO[C@]12CC[C@@]3(C[C@@H]1C(C)(C)O)[C@H]1Cc4ccc(O)c5c4[C@@]3(CCN1CC1CC1)[C@H]2O5	–	–	–	–	–	–	1
